What was measured:
[1] = test system: NK cells with autologous or allogeneic monocytes; test: NK ELISA, IFN-γ secretion by NK cells cultured with monocytes; assay type: cell-based, human
Method: ALS patient's NK cells increase secretion of IFN-g with both autologous and allogeneic monocytes indicating potential priming of the NK cells (FIG. 15). IFN-g release of NK with different donor monocytes. Purified NK cells were treated with the combination of IL-2 and anti-CD16 mAb (3 μg/ml), and cultured with autologous and allogeneic monocytes at (1:1 NK:monocyte ratios). After an overnight treatment at 37° C., the supernatants were removed and IFN-g secretion was measured using ELISA.
NK ELISA. Purified NK cells were treated with IL-2 (1000 U/mL) or treated with the combination of IL-2 and anti-CD16 mAb (3 μg/ml) or IL-2+sAJ2 (Cells:sAJ2 1:20) and cultured with autologous monocytes at (1:1 NK:monocyte ratios). After an overnight treatment at 37° C., the supernatants were harvested and the levels of IFN-γ secretion were measured using ELISA (Table 30).
NK ELISA. Purified NK cells were treated with IL-2 (1000 U/mL) or treated with the combination of IL-2 and anti-CD16 mAb (3 μg/ml) or IL-2+sAJ2 (Cells:sAJ2 1:20) and cultured with allogeneic monocytes at (1:1 NK:monocyte ratios). After an overnight treatment at 37° C., the supernatants were harvested and the levels of IFN-γ secretion were measured using ELISA (Table 31).
NK Elisa. Purified NK cells were treated with IL-2 (1000 U/mL) or treated with the combination of IL-2 and anti-CD16 mAb (3 μg/ml) or IL-2+sAJ2 (Cells:sAJ2 1:20) and cultured with autologous monocytes at (1:1 NK:monocyte ratios). After an overnight treatment at 37° C., the supernatants were harvested and the levels of IFN-γ secretion were measured using ELISA (Table 40).

PBMCs = test: PBMC Luminex, cytokine/chemokine/growth factor/ligands secretion; assay type: cell-based, human; settings: for GRO / IL-6 / IL-7 / IL-8 / IL-10 / IL-12p40 / IL-12p70 / IL-13 / IL-15 / IP-10 / MCP1 / MCP1a / MCP3 / MDC / MIP1b / PDGF-AB/BB / PDGFaa / Rantes / TNFa / TNFb / VEGF: overnight treatment, supernatant
Method: Human ELISA kits for IFN-γ and IL-6 were purchased from Biolegend (San Diego, CA). The assay was conducted as recommended by the manufacturer. For certain experiments multiplex arrays were used to determine the levels of secreted cytokines and chemokines. Analysis was performed using MAGPIX (Millipore, MA) and data was analyzed using xPONENT 4.2.
Increased cytokine/chemokine/growth factor/ligands in PBMCs of patient activated with anti-CD3/28 and no difference between those activated with IL-2+anti-CD16 or IL-2+sAJ2 when compared to healthy twin (Tables 51-54). PBMC Luminex. PBMCs were left untreated, treated with IL-2 (1000 U/mL) or treated with the combination of IL-2 and anti-CD16 mAb (3 μg/ml), IL-2+anti-CD3/28 antibodies (25 μl/mL) or IL-2+sAJ2 (Cells:sAJ2 1:20). After an overnight treatment at 37° C., the supernatants were harvested and the levels of cytokine/chemokine/growth factor/ligands secretion were measured using multiplex luminex assay (Millipore, MA) (Tables 51-54).

[2] = H85 TC (healthy twin) PBMC supernatant

## Recombinant human IL-2
[1]; H80 DM NK (1:5) + H83 JC monocyte (1:5)
  IFN-γ secretion (ELISA): 155.05
[1]; H80 DM NK + auto monocyte, 1:5 dilution
  IFN-γ secretion (ELISA): 430.49
[1]; H81 JC (ALS) NK + auto monocyte, 1:5 dilution
  IFN-γ secretion (ELISA): 166.13
[1]; H81 JC NK (1:5) + P83 SS monocyte
  IFN-γ secretion (ELISA): 238.57
[1]; H82 TC (healthy twin) NK + auto monocyte, 1:5 dilution
  IFN-γ secretion (ELISA): 224.60
[1]; H82 TC NK (1:5) + H83 JC monocyte (1:5)
  IFN-γ secretion (ELISA): 79.89
[1]; H82 TC NK (1:5) + P83 SS monocyte
  IFN-γ secretion (ELISA): 107.03
[1]; H83 JC NK (1:5) + H80 DM monocyte
  IFN-γ secretion (ELISA): 163.40
[1]; H83 JC NK (1:5) + H82 TC monocyte
  IFN-γ secretion (ELISA): 80.93
[1]; H84 JC NK + auto monocyte, 1:8 dilution
  IFN-γ secretion (ELISA): 862.26
[1]; H84 JC monocyte alone, 1:8 dilution
  IFN-γ secretion (ELISA): 571.73
[1]; H85 TC NK + auto monocyte, 1:8 dilution
  IFN-γ secretion (ELISA): 322.96
[1]; H85 TC monocyte alone, 1:8 dilution
  IFN-γ secretion (ELISA): 616.97
[1]; P82 SS NK + H81 JC monocyte (1:5)
  IFN-γ secretion (ELISA): 123.73
[1]; P82 SS NK + H82 TC monocyte (1:5)
  IFN-γ secretion (ELISA): 396.21
[1]; P82 SS NK + auto monocyte, 1:5 dilution
  IFN-γ secretion (ELISA): 180.13
PBMCs; H84 JC (ALS) PBMC supernatant
  EGF: 32.7 pg/mL
  Eotaxin: 6.73 pg/mL
  FGF2: 9.4 pg/mL
  FIT3L: 7.25 pg/mL
  Fractalkine: 136.75 pg/mL
  GCSF: 72.23 pg/mL
  GMCSF: 19.31 pg/mL
  IFNa2: 61.65 pg/mL
  IFNg: 737.57 pg/mL
  IL-1Ra: 223.2 pg/mL
  IL-1b: 78.01 pg/mL
  IL-3: 1.46 pg/mL
  IL-4: 52.33 pg/mL
  IL-5: 4.1 pg/mL
  IL-9: 11.69 pg/mL
  IL-17a: 3.7 pg/mL
  L-2: 5861 pg/mL
  Scd40L: 90.93 pg/mL
  TGFa: 2.06 pg/mL
PBMCs; H84 JC PBMC
  GRO: 787.28 pg/mL
  IL-6: 187.38 pg/mL
  IL-7: 13.08 pg/mL
  IL-8: 1731 pg/mL
  IL-10: 35.16 pg/mL
  IL-12p40: 11.69 pg/mL
  IL-12p70: 5.22 pg/mL
  IL-13: 27.85 pg/mL
  IL-15: 3.58 pg/mL
  IP-10: 5325 pg/mL
  MCP1: 3791 pg/mL
  MCP1a: 797.51 pg/mL
  MCP3: 19.59 pg/mL
  MDC: 236.67 pg/mL
  MIP1b: 1226 pg/mL
  PDGF-AB/BB: 628.12 pg/mL
  PDGFaa: 216.77 pg/mL
  Rantes: 2776 pg/mL
  TNFa: 86.34 pg/mL
  TNFb: 8.68 pg/mL
  VEGF: 169.34 pg/mL
PBMCs; [2]
  EGF: 21.7 pg/mL
  Eotaxin: 6.65 pg/mL
  FGF2: 8.91 pg/mL
  FIT3L: 7.82 pg/mL
  Fractalkine: 144.7 pg/mL
  GCSF: 78.01 pg/mL
  GMCSF: 29.52 pg/mL
  IFNa2: 55.3 pg/mL
  IFNg: 356.57 pg/mL
  IL-1Ra: 290.61 pg/mL
  IL-1b: 31.3 pg/mL
  IL-3: 1.55 pg/mL
  IL-4: 58.41 pg/mL
  IL-5: 2.73 pg/mL
  IL-9: 11.37 pg/mL
  IL-17a: 3.82 pg/mL
  L-2: 6058 pg/mL
  Scd40L: 60.01 pg/mL
  TGFa: 2.34 pg/mL
PBMCs; H85 TC PBMC
  GRO: 578.51 pg/mL
  IL-6: 233.23 pg/mL
  IL-7: 15.53 pg/mL
  IL-8: 1200 pg/mL
  IL-10: 30.4 pg/mL
  IL-12p40: 10.47 pg/mL
  IL-12p70: 5.98 pg/mL
  IL-13: 23.35 pg/mL
  IL-15: 5.58 pg/mL
  IP-10: 5713 pg/mL
  MCP1: 3688 pg/mL
  MCP1a: 882.8 pg/mL
  MCP3: 18.48 pg/mL
  MDC: 213.63 pg/mL
  MIP1b: 1574 pg/mL
  PDGF-AB/BB: 611.21 pg/mL
  PDGFaa: 153.17 pg/mL
  Rantes: 1987 pg/mL
  TNFa: 233.23 pg/mL
  TNFb: 12.72 pg/mL
  VEGF: 144.7 pg/mL
